Literature values, collected in PMC6447844 (Cancer Science, 2019).

System: patients with advanced NSCLC harboring MET exon 14 skipping mutations
Conditions: cited from earlier work

CN1CCC(COc2cnc(-c3cccc(Cn4nc(-c5cccc(C#N)c5)ccc4=O)c3)nc2)CC1 [Tepotinib]
ORR (95% CI, 33.9-72.5): 53.6% | Median DOR: 12.39 months
